Earlier results on one compound are cited in patent US7041320B1 (priority 2002, dated 2006).

The subject of this data set is physically-dependent opioid abusers. The following applies: historical opioid users challenged with the same hydromorphone dose, no depot.

SMILES strings stand for the structures.

Take `CN1CC[C@]23c4c5ccc(O)c4O[C@H]2C(=O)CC[C@H]3[C@H]1C5` [hydromorphone]: the “mean peak response (SEM) on VAS "Do you feel any drug effect?"” value was 37.1 (SEM=8.0).
